From PMC4216219 (Journal of Medicinal Chemistry, 2014)

Legend:
[1] = Tolerated dose determination in uninfected mice; type: in vivo; conditions: 30 mg/kg ip for 5 consecutive days, uninfected BALB/c mice
[2] = test system: J774A.1 (mouse macrophage cell line); conditions: presence vs absence of folinic acid

| SMILES | tolerability [1] | effect of folinic acid on activity, J774A.1 [2] |
| --- | --- | --- |
| CCCCNc1nc(NCc2ccccc2)nc2ccccc12 [Compound 16, N^2-Benzyl-N^4-butylquinazoline-2,4-diamine] | slowed breathing | no antagonism |
| CNc1nc(NCc2ccccc2)nc2ccccc12 [Compound 15, N^2-Benzyl-N^4-methylquinazoline-2,4-diamine] | well tolerated | no antagonism |
| CCCCNc1nc(NCc2ccccc2)c2ccccc2n1 [Compound 13, N^4-Benzyl-N^2-butylquinazoline-2,4-diamine] | – | no antagonism |
| CCc1nc(N)nc(N)c1-c1ccc(Cl)cc1 [pyrimethamine, reference compound] | – | antagonized significantly |
| CNc1nc(NCc2ccccc2)c2ccccc2n1 [Compound 12, N^4-Benzyl-N^2-methylquinazoline-2,4-diamine] | – | no antagonism |
| Cc1ccc2c(NCc3ccco3)nc(NC(C)C)nc2c1 [Compound 23, N^4-(Furan-2-ylmethyl)-N^2-isopropyl-7-methylquinazoline-2,4-diamine] | hypoactivity | no antagonism |
| c1ccc(CNc2nc(NCc3ccccc3)c3ccccc3n2)cc1 [Compound 10, N^2,N^4-Dibenzylquinazoline-2,4-diamine] | – | no antagonism |
| CN(Cc1cnc2nc(N)nc(N)c2n1)c1ccc(C(=O)N[C@@H](CCC(=O)O)C(=O)O)cc1 [methotrexate, reference compound] | – | antagonized significantly |
